Source: patent US20170349638A1, “COMPANION DIAGNOSTIC TOOL FOR PEPTIDOMIMETIC MACROCYCLES” (AILERON Therapeutics, Inc., priority 2016, published 2017)

Protein sequences, listed by entry. Tags and fused reporters are not part of them. Residues count along the entry.
UniProt Q00987, 1-125: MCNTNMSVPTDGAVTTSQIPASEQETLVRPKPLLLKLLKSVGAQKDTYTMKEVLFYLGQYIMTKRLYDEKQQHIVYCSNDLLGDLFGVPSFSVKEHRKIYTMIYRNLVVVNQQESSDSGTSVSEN

Assays:
[1] = tested on: RKO cells; experiment: Cell viability assay (MTT) RKO; conditions: read-out: RKO EC50 (72 h)
[2] = molecular target: MDM2 (Homo sapiens, UniProt Q00987); experiment: Competitive fluorescence polarization assay for MDM2; type: binding; conditions: Table 26A; competitive FP
[3] = tested on: HCT-116 cells; experiment: Cell viability assay (MTT) HCT-116; conditions: read-out: HCT-116 EC50 (72 h)
[4] = tested on: SW-480 cells; experiment: Cell viability assay (MTT) SW-480; conditions: read-out: SW480 EC50 (6 days)
[5] = molecular target: T1, MDMX (Homo sapiens, UniProt O15151); experiment: Competitive fluorescence polarization assay MDMX; type: binding; conditions: Table 26A; competitive FP
T1 sequence (O15151 1-125): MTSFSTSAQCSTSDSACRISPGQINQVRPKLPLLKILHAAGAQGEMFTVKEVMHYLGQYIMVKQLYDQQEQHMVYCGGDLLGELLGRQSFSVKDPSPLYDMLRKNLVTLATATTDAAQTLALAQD

[6] = tested on: RKO-E6 cells; experiment: Cell viability assay (MTT) RKO-E6; conditions: read-out: RKO-E6 EC50 (72 h)
[7] = Circular dichroism (CD) analysis of alpha-helicity; type: physicochemical; conditions: difference 50% TFE minus benign buffer, 222 nm
Protocol: Peptide solutions were analyzed by CD spectroscopy using a Jasco J-815 spectropolarimeter (Jasco Inc., Easton, Md.) with the Jasco Spectra Manager Ver.2 system software. A Peltier temperature controller was used to maintain temperature control of the optical cell. Results are expressed as mean molar ellipticity [θ] (deg cm^2dmol^−1) as calculated from the equation [θ]=θobs·MRW/10*1*c where θobs is the observed ellipticity in millidegrees, MRW is the mean residue weight of the peptide (peptide molecular weight/number of residues), 1 is the optical path length of the cell in centimeters, and c is the peptide concentration in mg/ml. Peptide concentrations were determined by amino acid analysis. Stock solutions of peptides were prepared in benign CD buffer (20 mM phosphoric acid, pH 2). The stocks were used to prepare peptide solutions of 0.05 mg/ml in either benign CD buffer or CD buffer with 50% trifluoroethanol (TFE) for analyses in a 10 mm pathlength cell. Variable wavelength measurements of peptide solutions were scanned at 4° C. from 195 to 250 nm, in 0.2 nm increments, and a scan rate 50 nm per minute. The average of six scans was reported.

315 (LTFAAYWAQLAAAAAAA; Ac, NH2, hydrocarbon staple; N-term Ac; MOD_RES (4)..(4): Alpha-Me R-azide 1,4 triazole (6 carbon) alanine olefin amino acid connected by an all-carbon crosslinker comprising one double bond; misc_feature (4)..(11): Crosslink between residues; MOD_RES () [compound 315]
EC50 [1]: < 5 µM | IC50 [2]: 10 to 100 nM | Ki [2]: < 10 nM | EC50 [3]: < 5 µM | EC50 [4]: < 5 µM | IC50 [5]: 10 to 100 nM | Ki [5]: 10 to 100 nM | EC50 [6]: 15 to 30 µM

CCCC[C@H](NC(=O)[C@H](C)NC(=O)[C@H](C)NC(=O)[C@]1(C)CCC/C=C/CCCCCC[C@@](C)(NC(=O)[C@H](Cc2ccccc2)NC(=O)[C@@H](NC(=O)[C@H](CC(C)C)NC(C)=O)[C@@H](C)O)C(=O)N[C@@H](C)C(=O)N[C@@H](Cc2ccc(O)cc2)C(=O)N[C@@H](Cc2c[nH]c3ccccc23)C(=O)N[C@@H](C)C(=O)N[C@@H](CCC(N)=O)C(=O)N[C@@H](CC(C)C)C(=O)N1)C(=O)N[C@@H](C)C(N)=O [compound 69]
Molar Ellipticity TFE − Molar Ellipticity Benign [7]: −21407.1 deg cm^2dmol^−1
